# Values of other authors as cited in patent US20150136150A1, “DURABLE SKIN MARKING COMPOSITIONS” (OP-MARKS, INC., priority 2011, published 2015).
# System: rat
# Conditions: oral dose administered to rat; cited from earlier work
compound,measurement,value
CCCOCC(C)O (stereo not shown) [PGPE (Arcosolv)],"TOX (toxicity, LD50)",2504 mg/kg
